For one compound, T results are on record in ChEMBL document CHEMBL4396912 (Eur J Med Chem, 2019).

By UniProt entry, the sequences of proteins in these tests, tags left out.
UniProt P14735, whole entry: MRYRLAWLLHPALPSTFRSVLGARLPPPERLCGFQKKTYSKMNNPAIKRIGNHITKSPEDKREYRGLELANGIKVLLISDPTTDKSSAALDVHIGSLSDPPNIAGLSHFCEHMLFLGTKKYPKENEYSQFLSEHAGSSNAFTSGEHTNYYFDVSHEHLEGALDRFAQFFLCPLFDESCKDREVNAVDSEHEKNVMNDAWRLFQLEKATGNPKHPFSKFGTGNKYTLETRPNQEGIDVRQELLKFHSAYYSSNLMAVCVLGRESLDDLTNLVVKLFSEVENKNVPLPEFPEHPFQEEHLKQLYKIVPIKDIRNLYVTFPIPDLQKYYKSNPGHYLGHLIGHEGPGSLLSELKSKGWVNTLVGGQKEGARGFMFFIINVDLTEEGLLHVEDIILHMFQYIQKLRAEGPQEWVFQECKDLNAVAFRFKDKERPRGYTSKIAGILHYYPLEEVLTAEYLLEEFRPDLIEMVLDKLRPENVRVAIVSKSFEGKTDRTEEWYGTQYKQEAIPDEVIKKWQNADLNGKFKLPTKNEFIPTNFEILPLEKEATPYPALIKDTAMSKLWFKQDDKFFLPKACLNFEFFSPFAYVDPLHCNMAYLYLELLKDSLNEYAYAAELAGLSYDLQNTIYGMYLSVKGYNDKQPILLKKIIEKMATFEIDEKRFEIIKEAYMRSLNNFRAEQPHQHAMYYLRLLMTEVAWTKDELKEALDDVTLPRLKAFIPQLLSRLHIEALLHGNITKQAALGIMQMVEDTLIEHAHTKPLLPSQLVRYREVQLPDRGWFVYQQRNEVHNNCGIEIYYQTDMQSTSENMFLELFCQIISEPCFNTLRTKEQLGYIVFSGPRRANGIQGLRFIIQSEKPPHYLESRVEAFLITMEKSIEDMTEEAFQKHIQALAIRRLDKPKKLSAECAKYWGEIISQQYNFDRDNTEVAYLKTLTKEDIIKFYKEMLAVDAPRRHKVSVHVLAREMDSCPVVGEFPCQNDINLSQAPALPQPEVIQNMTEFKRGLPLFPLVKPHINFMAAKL

The structures appear in SMILES notation.

In the assay the target is Insulin-degrading enzyme (Homo sapiens) (UniProt P14735). The note with it: HepG2, 30 uM.

As to `O=C(C[C@@H](Cc1ccc2ccccc2c1)n1cc(CNC(=O)c2ccc(F)cc2)nn1)NO`, the T stood at 54.4 °C.
